Source: ChEMBL document CHEMBL5505953, “Facilitating the development of molecular glues: Opportunities from serendipity and rational design” (Eur J Med Chem, 2024)
Values belong to the compound of their own block, whether it stands above or below them.

Sequences of proteins named here, by UniProt entry; tags and fusion partners are left off. A change or cut given only in a name is not applied to a line headed by its entry.
UniProt P48729: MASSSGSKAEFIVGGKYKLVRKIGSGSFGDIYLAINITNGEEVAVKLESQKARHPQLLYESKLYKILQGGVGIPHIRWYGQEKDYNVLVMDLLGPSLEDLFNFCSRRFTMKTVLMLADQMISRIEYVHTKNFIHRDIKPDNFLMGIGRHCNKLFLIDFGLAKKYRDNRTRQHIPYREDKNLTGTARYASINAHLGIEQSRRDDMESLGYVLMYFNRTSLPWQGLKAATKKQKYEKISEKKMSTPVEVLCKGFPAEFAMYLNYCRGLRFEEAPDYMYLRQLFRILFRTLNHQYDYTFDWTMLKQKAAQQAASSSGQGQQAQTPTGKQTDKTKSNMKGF
UniProt Q96SW2: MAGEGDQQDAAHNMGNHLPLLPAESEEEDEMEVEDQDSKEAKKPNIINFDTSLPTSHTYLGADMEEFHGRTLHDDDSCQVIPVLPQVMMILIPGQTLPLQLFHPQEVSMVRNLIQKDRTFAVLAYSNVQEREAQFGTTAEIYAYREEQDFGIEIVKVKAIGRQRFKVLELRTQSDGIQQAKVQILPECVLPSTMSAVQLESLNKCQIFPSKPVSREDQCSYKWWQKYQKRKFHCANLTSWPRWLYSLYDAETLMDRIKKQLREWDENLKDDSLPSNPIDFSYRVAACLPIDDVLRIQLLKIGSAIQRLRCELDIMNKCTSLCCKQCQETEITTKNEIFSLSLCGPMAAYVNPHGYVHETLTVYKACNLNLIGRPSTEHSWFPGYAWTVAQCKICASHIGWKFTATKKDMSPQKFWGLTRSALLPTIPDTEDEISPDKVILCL
UniProt Q9UKS7: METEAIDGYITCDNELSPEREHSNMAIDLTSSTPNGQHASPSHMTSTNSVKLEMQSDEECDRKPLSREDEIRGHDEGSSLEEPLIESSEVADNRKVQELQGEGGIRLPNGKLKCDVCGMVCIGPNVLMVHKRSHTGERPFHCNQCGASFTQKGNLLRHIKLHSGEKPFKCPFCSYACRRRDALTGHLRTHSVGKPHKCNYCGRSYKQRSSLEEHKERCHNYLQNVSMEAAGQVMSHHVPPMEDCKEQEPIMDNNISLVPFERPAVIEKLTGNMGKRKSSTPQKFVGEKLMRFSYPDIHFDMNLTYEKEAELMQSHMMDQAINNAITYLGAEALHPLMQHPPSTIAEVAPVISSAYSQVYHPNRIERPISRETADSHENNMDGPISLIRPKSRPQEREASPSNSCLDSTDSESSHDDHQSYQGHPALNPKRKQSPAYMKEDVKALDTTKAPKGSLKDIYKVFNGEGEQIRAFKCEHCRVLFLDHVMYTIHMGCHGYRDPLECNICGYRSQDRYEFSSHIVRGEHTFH
UniProt P15170, whole entry, looked up: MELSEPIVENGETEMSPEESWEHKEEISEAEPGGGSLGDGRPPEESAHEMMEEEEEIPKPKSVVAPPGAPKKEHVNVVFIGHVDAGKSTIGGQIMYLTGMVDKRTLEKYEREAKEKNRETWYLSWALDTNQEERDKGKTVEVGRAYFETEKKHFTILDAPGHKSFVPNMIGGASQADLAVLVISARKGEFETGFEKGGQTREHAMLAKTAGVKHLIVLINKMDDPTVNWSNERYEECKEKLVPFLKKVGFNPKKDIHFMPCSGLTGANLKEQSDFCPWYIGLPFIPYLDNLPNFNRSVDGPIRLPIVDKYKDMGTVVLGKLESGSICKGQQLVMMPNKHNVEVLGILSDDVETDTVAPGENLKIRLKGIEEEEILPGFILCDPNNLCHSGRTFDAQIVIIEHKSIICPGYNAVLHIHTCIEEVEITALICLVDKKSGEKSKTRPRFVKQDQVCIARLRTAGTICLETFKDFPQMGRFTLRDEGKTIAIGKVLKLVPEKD
UniProt Q06187: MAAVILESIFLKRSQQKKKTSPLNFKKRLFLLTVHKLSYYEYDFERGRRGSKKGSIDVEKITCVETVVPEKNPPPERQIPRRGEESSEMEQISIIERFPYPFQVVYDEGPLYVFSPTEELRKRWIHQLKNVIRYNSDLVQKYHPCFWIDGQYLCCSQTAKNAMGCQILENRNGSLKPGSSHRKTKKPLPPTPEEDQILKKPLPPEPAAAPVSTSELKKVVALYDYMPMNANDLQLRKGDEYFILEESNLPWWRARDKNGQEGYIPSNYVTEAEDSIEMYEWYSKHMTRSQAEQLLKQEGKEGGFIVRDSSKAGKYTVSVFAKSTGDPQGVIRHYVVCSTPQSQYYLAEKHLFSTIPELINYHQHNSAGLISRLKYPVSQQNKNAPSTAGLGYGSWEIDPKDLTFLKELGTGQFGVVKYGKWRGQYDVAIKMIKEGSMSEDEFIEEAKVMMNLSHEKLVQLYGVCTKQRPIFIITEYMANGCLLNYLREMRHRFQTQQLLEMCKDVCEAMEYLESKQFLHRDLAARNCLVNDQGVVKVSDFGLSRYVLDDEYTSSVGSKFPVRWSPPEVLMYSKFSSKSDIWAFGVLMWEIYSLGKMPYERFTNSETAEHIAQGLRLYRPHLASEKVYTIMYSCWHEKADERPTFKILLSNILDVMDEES
UniProt P03372, whole entry: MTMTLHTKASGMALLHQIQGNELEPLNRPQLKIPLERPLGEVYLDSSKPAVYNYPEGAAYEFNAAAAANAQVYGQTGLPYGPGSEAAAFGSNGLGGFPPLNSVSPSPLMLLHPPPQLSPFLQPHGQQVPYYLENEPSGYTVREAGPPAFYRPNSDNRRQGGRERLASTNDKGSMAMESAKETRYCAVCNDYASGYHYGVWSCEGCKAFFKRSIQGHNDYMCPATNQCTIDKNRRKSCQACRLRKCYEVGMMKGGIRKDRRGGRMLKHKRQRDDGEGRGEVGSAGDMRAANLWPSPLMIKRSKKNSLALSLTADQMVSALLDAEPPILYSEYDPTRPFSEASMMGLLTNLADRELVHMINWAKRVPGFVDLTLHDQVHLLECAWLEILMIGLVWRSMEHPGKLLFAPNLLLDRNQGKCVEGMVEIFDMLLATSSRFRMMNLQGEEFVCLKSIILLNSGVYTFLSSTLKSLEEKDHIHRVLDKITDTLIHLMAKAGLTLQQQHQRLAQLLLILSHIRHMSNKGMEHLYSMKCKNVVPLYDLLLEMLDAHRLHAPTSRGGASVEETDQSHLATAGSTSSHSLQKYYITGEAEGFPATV

Assays:
[1] = biological target: Cereblon/Casein kinase I alpha (Homo sapiens, UniProt P48729+Q96SW2); experiment: PROTAC activity at CRBN/CK1alpha in human MOLM-13 cells assessed as maximum degradation at 25 uM by Western blot analysis relative to control; assay type: cell-based
[2] = biological target: Protein cereblon/Zinc finger protein Helios (Homo sapiens, UniProt Q96SW2+Q9UKS7); experiment: PROTAC activity at CRBN/IKZF2 (unknown origin) in HEK293T cells assessed as maximal degradation at 25 uM incubated for 24 hrs by Western blotting analysis relative to control; assay type: cell-based
[3] = biological target: Protein cereblon/Eukaryotic peptide chain release factor GTP-binding subunit ERF3A (Homo sapiens) (UniProt Q96SW2+P15170); experiment: PROTAC activity at CRBN/GSPT1 protein protein interaction in human MOLT-4 cells assessed as maximum degradation of GSPT1 incubated for 17 hrs by Western blot analysis relative to control; assay type: cell-based
[4] = biological target: Protein cereblon/Tyrosine-protein kinase BTK (Homo sapiens, UniProt Q06187+Q96SW2); experiment: PROTAC activity at BTK/CRBN protein protein interaction in human Ramos cell assessed as maximum degradation of BTK incubated for 17 hrs measured by Western blot analysis relative to control; assay type: cell-based
[5] = biological target: Estrogen receptor (Homo sapiens, UniProt P03372); experiment: Binding affinity to wild type ERalpha (unknown origin) assessed as apparent dissociation constant

Emax [1]: 88%
Compound: O=C1CCC(N2Cc3c(CNC(=O)c4ccc(F)cc4)cccc3C2=O)C(=O)N1 (centres undefined)

Emax [1]: 95%
Compound: Cc1cccc(C(=O)Nc2ccc3c(c2)CN(C2CCC(=O)NC2=O)C3=O)c1 (centres undefined)

Emax [1]: < 10%
Compound: O=C1CCC(N2Cc3cc(Nc4noc5ccccc45)ccc3C2=O)C(=O)N1 (centres undefined)

Emax [2]: 53%
Compound: O=C1CCC(N2Cc3cc(C4CCN(Cc5ccccc5)CC4)ccc3C2=O)C(=O)N1 (centres undefined)

Emax [2]: 29%
Compound: O=C1CCC(N2Cc3cc(C4CCNCC4)ccc3C2=O)C(=O)N1 (centres undefined)

Emax [3]: 90% | Emax [4]: 80%
Compound: Nc1ncnc2c1c(-c1ccc(Oc3ccccc3)cc1)nn2[C@H]1CCCN(C(=O)CCCCCCCCNc2ccc3c(c2)C(=O)N(C2CCC(=O)NC2=O)C3=O)C1 (some centres undefined)

Kb [5]: 3400 nM
Compound: CS(=O)(=O)c1ccc(C=O)cc1

Kb [5]: 61 nM
Compound: C=CC(C)(C)OC[C@H]1O[C@H](O[C@@H]2C3=C([C@H](C)COC(C)=O)C[C@H](O)[C@]3(C)/C=C3/[C@@H](COC)CC[C@H]3[C@@H](C)[C@H]2O)[C@H](O)[C@@H](OC(C)=O)[C@@H]1O
